Measurements from patent publication US20240245793A1, “PSD-95 INHIBITORS AND USES THEREOF” (priority 2021, published 2024).

Test system: HeLa cells stably expressing HaloGFP
Assay: Chloroalkane penetration assay (CAPA), membrane permeability and cellular uptake
Type: cell-based
Excerpt: Since PSD-95 is located intracellularly, it is essential for any drug targeting PSD-95 to efficiently cross the cell membrane. To assess the cellular permeability and delivery to the cytosol of the compounds as defined herein, the cellular chloroalkane penetration assay (CAPA) may be used (Peraro et al. 2018). This assay takes advantage of a modified haloalkane dehalogenase designed to covalently bind chloroalkane (CA) molecules. A HeLa cell line expressing a fusion protein comprising a HaloTag, a green fluorescent protein (GFP) and a mitochondria-targeting peptide is used to report cytosolic delivery. The general format of the CAPA is a pulse-chase assay (Deprey & Kritzer, 2020). Cells expressing the HaloTag enzyme are incubated with CA-tagged peptides. […] Following a washing step, the cells are incubated with a CA-tagged dye that quantitatively penetrates the cell membrane and reacts with remaining unreacted HaloTag sites (chase step). Flow cytometry is used to measure the fluorescence intensity of the cells and the measured fluorescence is inversely proportional to the amount of CA-peptides that reach the penetrated the cells and can thus be used to assess cytosolic delivery. The obtained data is commonly expressed as CP50 values, the concentration at which 50% cell penetration is observed. The CP50 value of a compound may be measured as described in example 4. […]

Row | CP50 [µM] | Structure (SMILES) | CP50 (CA-tagged NPEG4-(IETDV)2 with various CPP-tags, 4 h at 37° C., mean ± SEM (Table 11, FIG. 8)) [µM]
1 | 5.0 ± 0.4 | CC[C@H](C)[C@H](NC(=O)CCOCCOCCN(CCOCCOCCC(=O)N[C@H](C(=O)N[C@@H](CCC(=O)O)C(=O)N[C@H](C(=O)N[C@@H](CC(=O)O)C(=O)N[C@H](C(=O)O)C(C)C)[C@@H](C)O)[C@@H](C)CC)C(=O)[C@H](CCCCN)NC(=O)[C@H](CCCCN)NC(=O)[C@H](Cc1c[nH]c2ccccc12)NC(=O)[C@H](CCCCN)NC(=O)[C@H](CCSC)NC(=O)[C@H](CCCNC(=N)N)NC(=O)[C@H](CCCNC(=N)N)NC(=O)[C@H](CC(N)=O)NC(=O)[C@H](CCC(N)=O)NC(=O)[C@H](Cc1ccccc1)NC(=O)[C@H](Cc1c[nH]c2ccccc12)NC(=O)[C@@H](NC(=O)[C@H](CCCCN)NC(=O)[C@@H](NC(=O)[C@H](CCC(N)=O)NC(=O)[C@H](CCCNC(=N)N)NC(=O)CCC(=O)NCCOCCOCCCCCCCl)[C@@H](C)CC)[C@@H](C)CC)C(=O)N[C@@H](CCC(=O)O)C(=O)N[C@H](C(=O)N[C@@H](CC(=O)O)C(=O)N[C@H](C(=O)O)C(C)C)[C@@H](C)O [Compound 47] | 
2 |  | CC[C@@H](C)[C@@H](NC(=O)[C@@H](CCCCN)NC(=O)[C@H](NC(=O)[C@@H](CCC(N)=O)NC(=O)[C@@H](CCCNC(=N)N)NC(=O)CCC(=O)NCCOCCOCCCCCCCl)[C@H](C)CC)C(=O)N[C@H](Cc1c[nH]c2ccccc12)C(=O)N[C@H](Cc1ccccc1)C(=O)N[C@H](CCC(N)=O)C(=O)N[C@H](CC(N)=O)C(=O)N[C@H](CCCNC(=N)N)C(=O)N[C@H](CCCNC(=N)N)C(=O)N[C@H](CCSC)C(=O)N[C@H](CCCCN)C(=O)N[C@H](Cc1c[nH]c2ccccc12)C(=O)N[C@H](CCCCN)C(=O)N[C@H](CCCCN)C(=O)N(CCOCCOCCC(=O)N[C@H](C(=O)N[C@@H](CCC(=O)O)C(=O)N[C@H](C(=O)N[C@@H](CC(=O)O)C(=O)N[C@H](C(=O)O)C(C)C)[C@@H](C)O)[C@@H](C)CC)CCOCCOCCC(=O)N[C@H](C(=O)N[C@@H](CCC(=O)O)C(=O)N[C@H](C(=O)N[C@@H](CC(=O)O)C(=O)N[C@H](C(=O)O)C(C)C)[C@@H](C)O)[C@@H](C)CC [Compound 49] | 18.8 ± 1.5

Like-named read-outs stand apart in the source and are kept apart here.
